{"source": "paper PMC5322387", "origin": "cited, not measured here", "key": {"E2 L1 L1 (Homo sapiens)": {"molecular_target": "E2 L1 L1 (Homo sapiens) (UniProt P10515)"}, "E2 L2 L2 (Homo sapiens) [1]": {"molecular_target": "E2 L2 L2 (Homo sapiens) (UniProt P10515)", "test": "analytical ultracentrifugation"}, "E2 L2 L2 (Homo sapiens) [2]": {"molecular_target": "E2 L2 L2 (Homo sapiens) (UniProt P10515)"}, "E2 L2 L2 (Homo sapiens) [3]": {"molecular_target": "E2 L2 L2 (Homo sapiens) (UniProt P10515)", "test": "gel filtration"}, "[4]": {"molecular_target": "E3BP L3 L3 (Homo sapiens) (UniProt O00330)"}}, "note": "Where “and” joins values, the source holds several entries; their conditions need not be identical. Identical values can stand only once. Like-named read-outs stand apart in the source and are kept apart here."}
{"substance": "PDK2 (from UniProt Q15119)", "values": [{"measurement": "Kd", "setting": "E2 L1 L1 (Homo sapiens)", "value": 22, "unit": "µM"}, {"measurement": "Kd", "setting": "E2 L2 L2 (Homo sapiens) [1]", "value": "175 µM and 130 µM"}, {"measurement": "Kd", "setting": "E2 L2 L2 (Homo sapiens) [2]", "value": "3 µM and 0.4 µM"}, {"measurement": "Kd", "setting": "E2 L2 L2 (Homo sapiens) [3]", "value": 10, "unit": "µM"}, {"measurement": "Kd", "setting": "[4]", "value": 35, "unit": "µM"}]}
